Measured values published in US9127008B2, “Morphine sulfate methanolic solvate, processes for making same and related compositions and methods for treating pain” (Johnson Matthey Public Limited Company, priority 2013, dated 2015).
Like-named read-outs stand apart in the source and are kept apart here.

Key:
[1] = 2 months under air at room temperature
[2] = first sample: about 1 month room temperature, then about 1 month at 60° C. sealed under air
[3] = second sample: about 1 month room temperature in air, then about 1 month at 60° C. sealed under nitrogen

## morphine sulfate methanol solvate
[2]
  ABUK level after storage: 59 ppm
  methanol content after storage: 7.72 % by weight
  water content after storage: 5.09 % by weight
[3]
  ABUK level after storage: 21 ppm
  methanol content after storage: 7.21 % by weight
  water content after storage: 5.18 % by weight
[1]
  methanol content after storage: 8.75 % by weight
  water content after storage: 2.85 % by weight
[1]; morphine base had 5 ppm ABUK at start
  ABUK level after storage: 11 ppm
